Values joined by “and” are separate entries in the source; they are usually repeats but may differ in a detail not shown here. Equal entries are not always repeated.
Biological target: human μ-opioid receptor (OPRM1) (Homo sapiens, UniProt P35372)
Test: Inhibition of forskolin-induced cAMP accumulation assay, MOR antagonist mode (versus EC90 of fentanyl)
Conditions: for MOR Antagonist %Imax ± SEM: versus EC90 of fentanyl, Imax normalized to naltrexone

The chains behind the UniProt entries cited, without tags or fusion partners.
UniProt P35372, whole entry, looked up: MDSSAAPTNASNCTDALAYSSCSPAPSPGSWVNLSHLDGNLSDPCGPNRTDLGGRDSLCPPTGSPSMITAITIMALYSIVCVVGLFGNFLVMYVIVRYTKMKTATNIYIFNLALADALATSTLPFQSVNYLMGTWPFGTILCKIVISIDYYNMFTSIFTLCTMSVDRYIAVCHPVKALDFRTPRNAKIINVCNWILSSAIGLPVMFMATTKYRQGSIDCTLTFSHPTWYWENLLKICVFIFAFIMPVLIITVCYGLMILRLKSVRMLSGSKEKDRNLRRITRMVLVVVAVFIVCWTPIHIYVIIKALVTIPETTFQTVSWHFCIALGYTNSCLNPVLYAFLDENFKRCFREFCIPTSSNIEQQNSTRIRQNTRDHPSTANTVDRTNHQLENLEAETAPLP

SMILES | IC50 [nM] | MOR Antagonist %Imax ± SEM | MOR antagonist activity compared with naltrexone (in words) (cAMP assay)
CC[C@H]1[C@@H]2CCC[C@@]1(c1cccc(O)c1)CCN2CCc1ccccc1 [compound 15, 3-((1S,5R,9R)-9-Ethyl-2-phenethyl-2-azabicyclo[3.3.1]nonan-5-yl)phenol] | 3.3 | 69 ± 7% | 
CCC[C@H]1[C@@H]2CCC[C@@]1(c1cccc(O)c1)CCN2CCc1ccccc1 [compound 16] | 11 | 48 ± 1% | 
CCCC[C@H]1[C@@H]2CCC[C@@]1(c1cccc(O)c1)CCN2CCc1ccccc1 [compound 17, 3-((1S,5R,9R)-9-Butyl-2-phenethyl-2-azabicyclo[3.3.1]nonan-5-yl)phenol] | 3.8 | 80 ± 6% | 
CCC[C@@H]1[C@@H]2CCC[C@@]1(c1cccc(O)c1)CCN2CCc1ccccc1 [compound 19, 3-((1S,5R,9S)-2-Phenethyl-9-propyl-2-azabicyclo[3.3.1]nonan-5-yl)phenol] | 415 | 101 ± 9% | 
CCCC[C@@H]1[C@@H]2CCC[C@@]1(c1cccc(O)c1)CCN2CCc1ccccc1 [compound 20, 3-((1S,5R,9S)-9-Butyl-2-phenethyl-2-azabicyclo[3.3.1]nonan-5-yl)phenol] | 1370 | 59 ± 4% | 
CC[C@@H]1[C@H]2CCC[C@]1(c1cccc(O)c1)CCN2CCc1ccccc1 [compound 38, 3-((1R,5S,9S)-9-Ethyl-2-phenethyl-2-azabicyclo[3.3.1]nonan-5-yl)phenol] | 35 | 92 ± 7% | 
CCC[C@@H]1[C@H]2CCC[C@]1(c1cccc(O)c1)CCN2CCc1ccccc1 [compound 39, 3-((1R,5S,9S)-2-Phenethyl-9-propyl-2-azabicyclo[3.3.1]nonan-5-yl)phenol] | 140 | 123 ± 12% | 
CCCC[C@@H]1[C@H]2CCC[C@]1(c1cccc(O)c1)CCN2CCc1ccccc1 [compound 40, 3-((1R,5S,9S)-9-Butyl-2-phenethyl-2-azabicyclo[3.3.1]nonan-5-yl)phenol] | 2090 | 101 ± 7% | 
C[C@H]1[C@@H]2CCC[C@@]1(c1cccc(O)c1)CCN2CCc1ccccc1 [compound 48, 3-((1S,5R,9R)-9-Methyl-2-phenethyl-2-azabicyclo[3.3.1]nonan-5-yl)phenol] |  | 153% and 153 ± 12% | more potent, selective, and with higher antagonist efficacy than naltrexone
C[C@@H]1[C@H]2CCC[C@]1(c1cccc(O)c1)CCN2CCc1ccccc1 [compound 56, 3-((1R,5S,9S)-9-Methyl-2-phenethyl-2-azabicyclo[3.3.1]nonan-5-yl)phenol] |  | 93 ± 7% | 

Source: PMC10386414 (Molecules, 2023)
